HCMV NEC inh: cytomegalovirus nuclear egress complex inhibition; inhibition, % (no concentration beside the values); HTRF UL50-UL53 interaction, normalized percent inhibition; 0.15% of 190,000 active; in the data active = inhibition above about 27%, passing the limit was not always enough
GIV Gai3 FP: inhibitors of GIV GBA-motif binding to rat Galpha-i3; percent of control (FP), % (concentration not given with the values); AID 1224905; Galpha-i3/FITC-GIV peptide fluorescence polarization, 90 min; stronger effect = lower value; scaled: aluminum fluoride 0%, vehicle 100%; 210,000 compounds, 0.42% hits; P08753;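 active means replicate mean at 85% of control or lower, very high polarization wells dropped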;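 further: wells of about 15 µL received 100 nL stock; the first replicate is given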
GIV Gai FP conf: confirmation of inhibitors of GIV binding to rat Galpha-i3. FITC-GIV peptide binding to Galphai3, fluorescence polarization; active compounds read low. fluorescence polarization, mP at 100 µM. shares compounds with GIV Gai3 FP. 38% of 580 active;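 active = inhibition score of 15 or more, meaning 100 minus mean polarization as percent of control over three replicates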;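 also: lower mP means peptide displaced from Galphai3 so more inhibition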
GIV Gai AS conf: confirmation of inhibitors of GIV binding to human Galpha-i3; AID 1259351; AlphaScreen counts at 100 µM; shares compounds with GIV Gai3 FP; AlphaScreen Galphai3-GIV binding, purified proteins, 90 min; active compounds read low; 39% of 580 active;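 active = inhibition score at or above a set limit, where the score is 100 minus the three-replicate mean percent of control signal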
Each line names hits and unclear results; the compound was inactive in the other large screens (follow-up assays come after a bar, where they were run). Most compounds without a hit are left out; they make up all but 0.43% or so of the library.

CCSc1nnc2c(n1)OC(c1ccc(Cl)cc1)Nc1ccccc1-2 (stereo not drawn)	GIV Gai3 FP 78 | GIV Gai FP conf inactive | GIV Gai AS conf inactive
CCCSc1nnc2c(n1)OC(c1c(OC)ccc3ccccc13)Nc1ccccc1-2 (stereo not drawn)	none
CCSc1nnc2c(n1)OC(c1c(OC)ccc3ccccc13)Nc1ccccc1-2 (stereo not drawn)	GIV Gai3 FP -4.5 | GIV Gai FP conf inactive | GIV Gai AS conf 32956
CCSc1nnc2c(n1)OC(c1ccc(C)cc1)Nc1ccccc1-2 (stereo not drawn)	none
CCCSc1nnc2c(n1)OC(c1ccc(OCC(=O)O)cc1)Nc1ccccc1-2 (stereo not drawn)	none (no result: HCMV NEC inh)
CCCSc1nnc2c(n1)OC(c1ccc(F)cc1)Nc1ccccc1-2 (stereo not drawn)	GIV Gai3 FP 66 | GIV Gai FP conf inactive | GIV Gai AS conf inactive
CCOC(=O)C1=C(C)N=c2s/c(=C\c3ccc(O)c(OCC)c3)c(=O)n2C1c1ccc(OC)cc1OC (stereo not drawn)	none
CCCCC(=O)Nc1ccc2c(c1)nc(Cn1ccnc1C)n2CCC	none
Cc1ccc(N=Cc2cc3ccccc3nc2Cl)c(C)c1	none (no result: GIV Gai3 FP)
O=C(NCCC1=CCCCC1)c1cccc(Oc2ccnc(-c3ccc(F)cc3)n2)c1	none (no result: HCMV NEC inh)
CCOc1cc(C(c2c(C)[nH]n(-c3ccccc3)c2=O)c2c(C)[nH]n(-c3ccccc3)c2=O)ccc1OC	GIV Gai3 FP 70 (no result: HCMV NEC inh) | GIV Gai FP conf inactive | GIV Gai AS conf 9976
CCOc1ccc(C(c2c(C)[nH]n(-c3ccccc3)c2=O)c2c(C)[nH]n(-c3ccccc3)c2=O)cc1OC	none
Cc1[nH]n(-c2ccccc2)c(=O)c1C(c1ccccc1OCc1ccccc1)c1c(C)[nH]n(-c2ccccc2)c1=O	none (no result: HCMV NEC inh)
CCOc1cc(C(c2c(C)[nH]n(-c3ccccc3)c2=O)c2c(C)[nH]n(-c3ccccc3)c2=O)ccc1OCc1ccccc1	GIV Gai3 FP 82 (no result: HCMV NEC inh) | GIV Gai FP conf 58 | GIV Gai AS conf inactive
CN(C1CCCCC1)S(=O)(=O)c1ccc(S(=O)(=O)N(Cc2cccs2)CC2CCCO2)cc1 (stereo not drawn)	none
O=C(CCc1c(-c2ccc(F)cc2)nc2ccccn12)NCCC1=CCCCC1	none (no result: HCMV NEC inh)
CN1C(C(=O)Nc2ccc(OC(F)(F)F)cc2)=CC(c2ccc3c(c2)OCO3)=NS1(=O)=O	GIV Gai3 FP 55 | GIV Gai FP conf inactive | GIV Gai AS conf inactive
CCc1ccc(NC(=O)C2=CC(c3ccc4c(c3)OCO4)=NS(=O)(=O)N2C)cc1	none
CC(=O)[C@@H]1[C@H]2C3COC(O3)C(=O)[C@@H]2[C@H]2C=Cc3ccccc3N21 (stereo partly drawn)	GIV Gai3 FP 80 (no result: HCMV NEC inh) | GIV Gai FP conf 51 | GIV Gai AS conf 7239
CC(C)(C)C(=O)C1C2C3COC(O3)C(=O)C2C2C=Cc3ccccc3N21 (stereo not drawn)	none
Cc1sc(-c2cc(C(F)(F)F)on2)cc1S(=O)(=O)N1CCc2ccccc21	none (no result: HCMV NEC inh)
COc1cccc(Oc2ccnc(-c3cccc(C(=O)NCc4ccc5c(c4)OCO5)c3)n2)c1	none (no result: HCMV NEC inh)
COC(=O)CCn1cnc2onc(-c3cc(F)cc(F)c3)c2c1=O	GIV Gai3 FP 71 | GIV Gai FP conf inactive | GIV Gai AS conf inactive
CC(C)NC(=O)CCn1cnc2onc(-c3cccc(F)c3)c2c1=O	none
COC(=O)CSc1nc(-c2ccccc2)c(-c2ccccc2)o1	none (no result: GIV Gai3 FP)
CN(C(=O)c1cc2c(s1)-c1ccccc1OC2)c1ccccc1	none (no result: HCMV NEC inh)
CCc1ccc(NC(=O)/C=C/C(=O)O)cc1	none
CC(C)NC(=O)c1ccc(COCC(F)(F)C(F)F)o1	none
CCN(CC)c1ccc(-c2c(C#N)c(N)nc(OC)c2C#N)cc1	GIV Gai3 FP 31 | GIV Gai FP conf inactive | GIV Gai AS conf inactive
CCOc1ccccc1-c1c(C#N)c(N)nc(OC)c1C#N	none
CC(=O)NC1C(OCc2ccc3ccccc3c2)OC(COC(C)=O)C(OC(C)=O)C1OC(C)=O (stereo not drawn)	none (no result: HCMV NEC inh)
Cc1ccc(NC(=O)N2CCN(c3cc(=O)n4nc(-c5ccccc5C)sc4n3)CC2)c(Cl)c1	none | GIV Gai FP conf inactive | GIV Gai AS conf inactive
Cc1ccccc1-c1nn2c(=O)cc(N3CCN(C(=O)Nc4cccc(Cl)c4C)CC3)nc2s1	none
CCOc1ccc(NC(=O)Cn2c(C(=O)OC)ccc2-c2ccco2)cc1	none
C#CCOC(=O)c1ccc(CSc2ccc(Cl)cc2)o1	none
CCN1CCN(c2ccc(N=Cc3cc(I)ccc3O)cc2)CC1	GIV Gai3 FP 28 | GIV Gai FP conf inactive | GIV Gai AS conf inactive
Oc1ccc(C=Nc2ccc(N3CCOCC3)cc2)cc1O	none (no result: GIV Gai3 FP)
Cc1ccc(-c2ccc(=O)n(C(C)C(=O)Nc3ccccc3)n2)cc1S(=O)(=O)N1CCOCC1 (stereo not drawn)	none
Cc1ccc(N2C(=O)C(N3C(=O)c4ccccc4C3=O)C2c2ccccc2Br)cc1 (stereo not drawn)	none (no result: HCMV NEC inh)
O=[N+]([O-])c1ccc(NCCCO)cc1Sc1nc2ccccc2[nH]1	none (no result: HCMV NEC inh)
O=[N+]([O-])c1ccc(N2CCCCC2)cc1Sc1nc2ccccc2[nH]1	none (no result: HCMV NEC inh) | GIV Gai FP conf inactive | GIV Gai AS conf inactive
Cc1cc(C(F)(F)F)c(C#N)c(=O)[nH]1	GIV Gai3 FP 40 (no result: HCMV NEC inh) | GIV Gai FP conf inactive | GIV Gai AS conf inactive
Cc1cc(C(F)(F)F)[nH]c(=O)c1C#N	none (no result: GIV Gai3 FP)
O=C(/C=C/c1ccco1)Nc1ccc(Nc2ccccc2)cc1	none (no result: GIV Gai3 FP)
Cc1ccccc1CNC(=O)CSc1nc2ncccc2n2cccc12	none
c1ccc2c(c1)CCN2c1c2c(nc3ncnn13)CCC2	none | GIV Gai FP conf inactive | GIV Gai AS conf inactive
Cc1cc(N2CCc3ccccc32)n2ncnc2n1	none
CCNC(=O)c1cnn2c3c(cnc12)CCCCCC3	none (no result: HCMV NEC inh)
COc1cc(C2NC(C(=O)O)CS2)ccc1OCC(N)=O (stereo not drawn)	none
COc1cccc(/C=C(\C#N)c2nc3ccc(C)cc3[nH]2)c1	GIV Gai3 FP 70 | GIV Gai FP conf inactive | GIV Gai AS conf inactive
CCC(=O)Oc1ccc(/C=C(\C#N)c2nc3ccccc3[nH]2)cc1OC	none | GIV Gai FP conf inactive | GIV Gai AS conf inactive
COc1cc(/C=C(\C#N)c2nc3ccc(C)cc3[nH]2)ccc1OCc1ccc(C)cc1	none
COc1cc(/C=C(\C#N)c2nc3ccccc3[nH]2)ccc1OCc1ccccc1F	none
COc1c(Cl)cc(Cl)cc1/C=C(\C#N)c1nc2ccccc2[nH]1	GIV Gai3 FP 46 (no result: HCMV NEC inh) | GIV Gai FP conf inactive | GIV Gai AS conf inactive
N#C/C(=C/c1ccc(Cl)cc1Cl)c1nc2ccccc2c(=O)[nH]1	none
CCCN(Cc1ccc(C(C)C)cc1)Cc1cc(=O)n2nc(CC)sc2n1	none (no result: HCMV NEC inh)
O=C(O)CONC1=NS(=O)(=O)c2ccccc21	none (no result: GIV Gai3 FP)
CCOC(=O)N1CCC(NC(=O)CSc2nc3ccccc3n2S(=O)(=O)c2cccc([N+](=O)[O-])c2)CC1	none (no result: HCMV NEC inh)
CCc1ccc(NC(=O)c2ccc(Nc3ncc(-c4cccc(F)c4)cn3)cc2)cc1	none (no result: HCMV NEC inh)
CCOC(=O)C1=C(C)NC2=C(C(=O)C(C(=O)OCC)C(c3ccccc3OC)C2)C1c1ccc(Br)cc1 (stereo not drawn)	none (no result: HCMV NEC inh)
O=C(Nc1cc(-c2nc3ccccc3o2)ccc1Cl)c1ccc(Br)o1	GIV Gai3 FP 69 | GIV Gai FP conf inactive | GIV Gai AS conf inactive
Cc1cc(C)c2oc(-c3cccc(NC(=O)c4ccco4)c3)nc2c1	none

High-throughput results: PubChem, ICCB-Longwood Screening Facility, Harvard Medical School
